## scFv variants of Ab-95 (light chain) against a SARS-CoV-2 spike peptide

Data: MIT Lincoln Laboratory AlphaSeq set, Engelhart et al. 2022, doi:10.1038/s41597-022-01779-4, as distributed in FLAb.

The target is the same throughout: PDVDLGDISGINAS, from the HR2 region of SARS-CoV-2 spike.

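Phage display of a naive human antibody library on the peptide gave the parent. AAYL52 was designed without a model: most single CDR substitutions and a random sample of double and triple ones. AlphaSeq pools MATa yeast showing the antibodies with MATalpha yeast showing the peptide. Pairs that bind mate more often; barcode pairs of the diploids are counted by sequencing. Scores were corrected for input abundance and mapped to Kd with protein pairs of known affinity run in the same pool. Each pool was mated in three replicate cultures.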

Ab-95 is the parent antibody, in scFv form: VH, then a (GGGGS)3 linker, then VL. The heavy chain is unchanged in all variants.
VH: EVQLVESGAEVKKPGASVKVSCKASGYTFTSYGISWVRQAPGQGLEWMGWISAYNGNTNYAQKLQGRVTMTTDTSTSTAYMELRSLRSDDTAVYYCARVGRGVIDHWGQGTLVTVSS
VL: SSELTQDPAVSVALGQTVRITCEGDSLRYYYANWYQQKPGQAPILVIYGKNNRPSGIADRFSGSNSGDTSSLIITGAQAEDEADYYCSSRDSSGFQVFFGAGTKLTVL

Each variant's VL is given in full.
Values are apparent Kd, the geometric mean of the replicates that gave a signal; lower means stronger binding.
A pair that was not seen in any replicate is written "nd"; this usually means weak binding, but a binder can also be missed.
For reference, the parent read 200 nM as the reference entry and 180 nM as a member of this library.
Three control strains display no target. For library AAYL52, 28% of the pairings with them gave a signal, with a median of 8.2 µM and one signal in twenty below 800 nM, so weak values seen in few replicates may be background. Also given: how often the same scFv was detected with the empty control strains.

{"VL": "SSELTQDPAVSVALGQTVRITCDGDSLRYYYGNWYQQKPGQAPILVIYGKNNRPSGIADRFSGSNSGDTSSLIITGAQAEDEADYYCSSRDSSGFQVSFGAGTKLTVL", "apparent Kd": "nd", "replicates with signal": "0/3", "control signals": "3/9"}
{"VL": "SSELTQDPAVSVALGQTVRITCFGDSLRYYYANWYQQKPGQAPILVIYQKNNRPSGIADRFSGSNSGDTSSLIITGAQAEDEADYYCSSRDSSGFQNFFGAGTKLTVL", "apparent Kd": "nd", "replicates with signal": "0/3", "control signals": "3/9"}
{"VL": "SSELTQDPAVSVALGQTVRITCEGDSLRYYYLNWYQQKPGQAPILVIYGKWNRPSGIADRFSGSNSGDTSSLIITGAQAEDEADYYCSSRDSSGFQVFFGAGTKLTVL", "apparent Kd": "nd", "replicates with signal": "0/3", "control signals": "1/9"}
{"VL": "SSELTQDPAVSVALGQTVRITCEGTSLRYYYANWYQQKPGQAPILVIYGKNNRPSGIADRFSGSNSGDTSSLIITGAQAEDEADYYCDSRDSFGFQVFFGAGTKLTVL", "apparent Kd": "250 nM", "replicates with signal": "3/3", "control signals": "2/9"}
{"VL": "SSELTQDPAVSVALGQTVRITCEGDQLRKYYANWYQQKPGQAPILVIYGKNNRPSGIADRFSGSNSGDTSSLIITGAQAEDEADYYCSSRDSFGFQVFFGAGTKLTVL", "apparent Kd": "nd", "replicates with signal": "0/3", "control signals": "2/9"}
{"VL": "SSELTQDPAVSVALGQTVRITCEGDSLRYYEANWYQQKPGQAPILVIYGKNNRPSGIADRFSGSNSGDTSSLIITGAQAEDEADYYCSERDNSGFQVFFGAGTKLTVL", "apparent Kd": "nd", "replicates with signal": "0/3", "control signals": "1/9"}
{"VL": "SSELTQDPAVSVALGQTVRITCEVSSLRYYYRNWYQQKPGQAPILVIYGKNNRPSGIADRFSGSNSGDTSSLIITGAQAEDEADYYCSSRDSSGFQVFFGAGTKLTVL", "apparent Kd": "nd", "replicates with signal": "0/3", "control signals": "1/9"}
{"VL": "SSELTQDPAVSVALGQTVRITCEGDSYRYDYANWYQQKPGQAPILVIYGKNSRPSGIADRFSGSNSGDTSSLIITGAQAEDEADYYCSSRDSSGFQVFFGAGTKLTVL", "apparent Kd": "2.7 µM", "replicates with signal": "2/3", "control signals": "5/9"}
{"VL": "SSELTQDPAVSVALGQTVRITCGGDSLRYAYANWYQQKPGQAPILVIYGKNNRPSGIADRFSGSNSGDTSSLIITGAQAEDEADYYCSSRDKSGFQVFFGAGTKLTVL", "apparent Kd": "8.4 nM", "replicates with signal": "3/3", "control signals": "2/9"}
{"VL": "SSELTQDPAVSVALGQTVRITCEGDSLRYYYANWYQQKPGQAPILVIYGKNNRPSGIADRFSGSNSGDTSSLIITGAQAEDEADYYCSSYDSSMCQVFFGAGTKLTVL", "apparent Kd": "1.8 µM", "replicates with signal": "3/3", "control signals": "1/9"}
{"VL": "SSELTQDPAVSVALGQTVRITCEGDSLRYYYAYWYQQKPGQAPILVIYGKNNGPSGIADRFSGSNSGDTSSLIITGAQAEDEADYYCSSRTSSGFQVFFGAGTKLTVL", "apparent Kd": "55 µM", "replicates with signal": "1/3", "control signals": "3/9"}
{"VL": "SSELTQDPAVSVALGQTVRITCEGDSLTYYYMNWYQQKPGQAPILVIYGKNNRPSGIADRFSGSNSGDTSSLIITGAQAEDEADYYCSSRDSSGFQHFFGAGTKLTVL", "apparent Kd": "nd", "replicates with signal": "0/3", "control signals": "1/9"}
{"VL": "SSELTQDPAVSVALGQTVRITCEGDYLRYYYANWYQQKPGQAPILVIYGKNNRPSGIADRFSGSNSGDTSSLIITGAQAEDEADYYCSSRISSGFQKFFGAGTKLTVL", "apparent Kd": "4.5 µM", "replicates with signal": "3/3", "control signals": "4/9"}
{"VL": "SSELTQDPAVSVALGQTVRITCEGDSLRYYYANWYQQKPGQAPILVIYGKNNNPGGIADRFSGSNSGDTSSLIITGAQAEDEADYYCSSRDSSGTQVFFGAGTKLTVL", "apparent Kd": "240 nM", "replicates with signal": "1/3", "control signals": "0/9"}
{"VL": "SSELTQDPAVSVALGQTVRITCEGDSLRVYQANWYQQKPGQAPILVIYGKNNRPSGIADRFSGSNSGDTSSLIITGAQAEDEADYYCSSRDSFGFQVFFGAGTKLTVL", "apparent Kd": "9.2 µM", "replicates with signal": "3/3", "control signals": "0/9"}

A selection of 2 entries from above:

| VL | apparent Kd | replicates with signal | control signals |
|---|---|---|---|
| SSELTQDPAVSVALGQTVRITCEGDSYRYDYANWYQQKPGQAPILVIYGKNSRPSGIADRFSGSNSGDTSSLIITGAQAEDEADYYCSSRDSSGFQVFFGAGTKLTVL | 2.7 µM | 2/3 | 5/9 |
| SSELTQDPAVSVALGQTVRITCEGDSLRVYQANWYQQKPGQAPILVIYGKNNRPSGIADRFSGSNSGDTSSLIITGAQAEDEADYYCSSRDSFGFQVFFGAGTKLTVL | 9.2 µM | 3/3 | 0/9 |